Screening data from PubChem.
E-selectin induc = induces E-selectin expression in human endothelial cells; 260,000 compounds, 0.37% hits; HUVEC E-selectin immunofluorescence imaging; normalized: neutral wells 0, TNF-alpha wells 100; activation, % at 7.58 µM; AID 686992;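 active means mean E-selectin-positive cell signal at least 10% of the positive control, reached in at least 60% of replicates, without over 20% cell loss; inconclusive means no rule given, readout overlaps actives, possibly toxicity-flagged; inactive means the rest, including those meeting only one limit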
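Read-out basis: % PE-positive cells; Test system: HUVEC primary endothelial cells; Technique: immunofluorescence imaging; Dosing: single-point compound dose.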
RAD54 branch = inhibitors of human RAD54 branch migration. Q92698. RAD54 Holliday junction branch migration, FAM/BHQ fluorescence. inhibition, % at 10.4 µM. 360,000 compounds, 0.14% hits;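 active means mean normalized replicate activity at least 40 and at least half of replicates scoring 40 or more; inconclusive means only one of the two criteria met; inactive means mean below 40 and under half of replicates reaching 40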;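 further: 0% = median of neutral control wells and 100% = median of positive control wells; inhibitors cause a drop in the FAM fluorescence signal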
Yeast UUG start = yeast start codon fidelity modulation | S. cerevisiae UUG-firefly luciferase reporter, luminescence/redox ratio | activity score, % at 18.7 µM | hit rate 0.13% among 350,000 | AID 602363;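 active means replicate mean at a twofold rise or more, about +100% in these data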;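 further: firefly luciferase made from a UUG start codon reports start codon fidelity; reporter light over untreated wells divided by growth signal over untreated wells; some hits fall short of that in this replicate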
RAD52 inh = blocks human RAD52 DNA annealing | P43351 | recombinant RAD52 DNA annealing, FRET fluorescence | inhibition, % at 18.7 µM | 360,000 compounds, 0.46% hits | AID 651710;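 active means every replicate showing at least 50% inhibition; inconclusive means mean inhibition at least 50% but not in every replicate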
Xi reactivation = X-chromosome reactivation activator | XiGFP mouse fibroblasts, % GFP-positive cells imaging, 3 d; cells co-treated with 5-aza-dC sensitizer; scaled so ellipticine positive control = 100% | activation, % at 7.58 µM | 360,000 compounds, 0.055% hits | AID 743238;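 active means mean normalized replicate activation at least 10% and every replicate at or above 10%; inconclusive means only one of the two criteria met; inactive means mean below 10% and not all replicates reach 10%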;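 further: 0% = median of on-plate neutral control wells and 100% = ellipticine 6 µM median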
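System: 68-5-11 XiGFP fibroblast line | Buffer or medium: DMEM containing 5-aza-dC | Compound: Single point | Times: Compounds 3 days, fix/stain 15 min at room temperature | Benchmarks: Positive control ellipticine, 6 µM final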
The depositor's hits bear a star; ? = inconclusive; . = no result given; ! = repeats disagree. Most compounds without a hit are left out; they make up all but 0.73% or so of the library.

Letters – A = E-selectin induc; B = RAD54 branch; C = Yeast UUG start; D = RAD52 inh; E = Xi reactivation
SMILES: COc1ccc(C)c2sc(N(CCCN(C)C)C(=O)c3ccc(S(=O)(=O)N4CCc5ccccc5C4)cc3)nc12
  A: 5	B: -1	C: -3	D: 95*	E: 0

SMILES: CCOC(=O)C1=c2/c(=C/c3ccncc3)c(N)c(C(=O)OC)n2C(=O)C(c2ccncc2)S1 (stereo unspecified)
  A: 0	B: 4	C: -7	D: -5	E: 116*

SMILES: Cc1cccc(NCc2n[nH]c(=S)n2-c2ccccc2)c1
  A: 1	B: .	C: .	D: -8	E: 0

SMILES: Cc1ccc(NCc2n[nH]c(=S)n2-c2ccccc2)cc1
  A: 30*	B: .	C: .	D: -16	E: 0

SMILES: Fc1cccc(CN2[C@@H]3CNC[C@H]2C3c2ccc(-c3ccncc3)cc2)c1 (stereo partly specified)
  A: 0	B: .	C: .	D: 65*!	E: 0

SMILES: Cc1ccc(-c2ccc(C3[C@H]4CNC[C@@H]3N4Cc3cccc(F)c3)cc2)cc1 (stereo partly specified)
  A: 0	B: .	C: .	D: 4	E: 0

SMILES: c1ccc(-c2ccc(C3[C@H]4CNC[C@@H]3N4Cc3cccc(-c4ccncc4)c3)cc2)cc1 (stereo partly specified)
  A: 0	B: .	C: .	D: 59*	E: 0

SMILES: Cc1ccccc1OCC(O)Cn1c(Br)nc2c1c(=O)[nH]c(=O)n2C (stereo unspecified)
  A: -2	B: .	C: .	D: -7	E: 0

SMILES: Cc1ccccc1OCC(O)Cn1c(Br)nc2c1c(=O)n(C)c(=O)n2C (stereo unspecified)
  A: 51*	B: -1	C: -1	D: 5	E: 0

SMILES: Cc1cccc(N2CCN(c3nc4ccc(Cl)cc4n4cnnc34)CC2)c1C
  A: 152*	B: 0	C: -20	D: -1	E: 0

SMILES: CC(=NNc1ccc2ccccc2n1)c1ccccn1
  A: 0	B: .	C: .	D: -110	E: 33*

SMILES: O=C(CN(CC1CCCO1)C(=O)CNS(=O)(=O)c1ccccc1)NCc1ccc(F)cc1 (stereo unspecified)
  A: 26*	B: -15	C: -3	D: -6	E: 0

SMILES: CCCC(=O)Nc1ccc2c(c1)C(=O)N(C)[C@@H]1CC[C@@H](CC(=O)NCCN3CCCCC3)O[C@H]1CO2
  A: 0	B: 11	C: -8	D: -9	E: 0

SMILES: C/C(=N\NC(=O)c1cc(-c2ccccc2C)nc2ccccc12)c1cccnc1
  A: 50*	B: -5	C: -12	D: -4	E: 0

SMILES: CCCC#Cc1ccc(CC[C@H]2O[C@H]3CC[C@H](CO)O[C@H]3C[C@H]2n2cc(C(C)(C)O)nn2)cc1
  A: .	B: .	C: .	D: -6	E: .

In a second layout: entries from further up
structure | E-selectin induc | RAD54 branch | Yeast UUG start | RAD52 inh | Xi reactivation
CCOC(=O)C1=c2/c(=C/c3ccncc3)c(N)c(C(=O)OC)n2C(=O)C(c2ccncc2)S1 (stereo unspecified) | 0 | 4 | -7 | -5 | 116*
Cc1cccc(N2CCN(c3nc4ccc(Cl)cc4n4cnnc34)CC2)c1C | 152* | 0 | -20 | -1 | 0
CCCC(=O)Nc1ccc2c(c1)C(=O)N(C)[C@@H]1CC[C@@H](CC(=O)NCCN3CCCCC3)O[C@H]1CO2 | 0 | 11 | -8 | -9 | 0

Remaining list, next part
Letters – A = E-selectin induc; B = RAD54 branch; C = Yeast UUG start; D = RAD52 inh; E = Xi reactivation
SMILES: CCC(=O)N1[C@@H]2Cn3c(ccc(-c4ccccc4)c3=O)[C@H]1[C@@H](C(=O)N1CCCCC1)[C@@H]2CO
  A: 0	B: -8	C: .	D: 4	E: 0

SMILES: CC(=O)N1[C@@H]2c3ccc(-c4ccccc4)c(=O)n3C[C@H]1[C@H](CO)[C@H]2C(=O)N1CCCCC1
  A: 0	B: 3	C: .	D: 63*	E: 1

SMILES: CCNC(=O)[C@@H]1[C@@H](CO)[C@@H]2Cn3c(ccc(-c4ccccc4F)c3=O)[C@H]1N2C(=O)CC
  A: 0	B: 2	C: .	D: 101*	E: 0

SMILES: Cc1nn(C)cc1NC(=O)C[C@H]1CC[C@@H]2[C@H](COc3ccc(NC(=O)C4CCC4)cc3C(=O)N2C)O1
  A: 0	B: 7	C: 41	D: 4	E: 0

SMILES: COC(=O)[C@@]1(Cc2ccc(F)cc2)[C@H]2c3cc(C(=O)N(C)C)n(Cc4ccc(C)o4)c3C[C@H]2CN1C(=O)c1ccccc1
  A: 86*	B: .	C: .	D: -35	E: 0

SMILES: O=S(=O)(c1ccc(F)cc1)N1CCCN(c2nccc(C(F)(F)F)n2)CC1
  A: 30*	B: -2	C: -5	D: -1	E: 0

SMILES: O=S(=O)(c1ccc(F)cc1)N1CCN(c2ncccn2)CC1
  A: 0	B: .	C: .	D: -8	E: .

SMILES: C[C@@H]1CN([C@H](C)CO)C(=O)Cc2cc(NC(=O)Nc3ccc(F)cc3)ccc2O[C@@H]1CN(C)S(=O)(=O)c1cn(C)cn1
  A: 85*	B: .	C: .	D: .	E: 0

SMILES: C[C@@H]1CN([C@H](C)CO)C(=O)Cc2cc(NS(C)(=O)=O)ccc2O[C@H]1CN(C)S(=O)(=O)c1cn(C)cn1
  A: 389*	B: 3	C: 0	D: .	E: 0

SMILES: C[C@H]1CN([C@@H](C)CO)C(=O)Cc2cc(NS(C)(=O)=O)ccc2O[C@H]1CN(C)S(=O)(=O)c1cn(C)cn1
  A: ?	B: 11	C: 4	D: .	E: 0

SMILES: C[C@H](CO)N1C[C@H](C)[C@@H](CN(C)S(=O)(=O)c2cn(C)cn2)Oc2ccc(NC(=O)Nc3ccc(F)cc3)cc2CC1=O
  A: 61*	B: .	C: .	D: .	E: 0

SMILES: Cc1noc(C)c1S(=O)(=O)N(C)C[C@H]1Oc2ccc(NC(=O)Nc3ccc(F)cc3)cc2CC(=O)N([C@H](C)CO)C[C@@H]1C
  A: 64*	B: -1	C: -14	D: 8	E: 0

SMILES: C[C@@H]1CN([C@@H](C)CO)C(=O)c2cc(NC(=O)NC3CCCCC3)ccc2O[C@@H]1CN(C)C(=O)Nc1ccc2c(c1)OCO2
  A: 0	B: -4	C: 0	D: -11	E: 0

SMILES: C[C@H](O)C#Cc1cnc2c(c1)C(=O)N([C@H](C)CO)C[C@H](C)[C@H](CN(C)C(=O)c1ccccc1F)O2
  A: .	B: -3	C: 3	D: -11	E: 0

SMILES: Cc1noc(C)c1NC(=O)Nc1ccc2c(c1)CC(=O)N([C@H](C)CO)C[C@H](C)[C@H](CN(C)S(=O)(=O)c1ccccc1)O2
  A: 47*	B: 5	C: 1	D: 8	E: 0

SMILES: O=C(COC(=O)/C=C/c1cccc([N+](=O)[O-])c1)Nc1cccnc1Cl
  A: 124*	B: .	C: .	D: -17	E: 0

SMILES: Cc1noc(C)c1NC(=O)Nc1ccc2c(c1)C(=O)N([C@@H](C)CO)C[C@@H](C)[C@@H](CN(C)S(C)(=O)=O)O2
  A: -10	B: -4	C: 2	D: 3	E: 0

SMILES: Cc1[nH]nc2c1C(c1ccco1)C(C#N)=C(N)O2 (stereo unspecified)
  A: 114*	B: 8	C: -5	D: -15	E: 0

SMILES: CN(C)C(=O)c1cccc(-c2ccccc2[C@H]2[C@@H](C#N)N(C(=O)C3CCC3)[C@@H]2CO)c1
  A: 0	B: .	C: .	D: -7	E: 0

SMILES: CN(C)C(=O)c1cccc(-c2ccccc2[C@H]2[C@H](C#N)N(C(=O)C3CCC3)[C@H]2CO)c1
  A: 0	B: .	C: .	D: 62*	E: 0

SMILES: CN(C)C(=O)c1cccc(-c2ccc(C3[C@H]4CNC[C@@H]3N4C(=O)Nc3cccc(Cl)c3)cc2)c1 (stereo partly specified)
  A: 0	B: .	C: .	D: -65	E: 0

SMILES: COc1ccc(NC(=O)N2[C@@H]3CNC[C@H]2C3c2ccc(-c3cccc(OC)c3)cc2)cc1 (stereo partly specified)
  A: 0	B: .	C: .	D: 41	E: 0

SMILES: COc1cccc(NC(=O)N2[C@@H]3CNC[C@H]2C3c2ccc(/C=C/c3ccccc3)cc2)c1 (stereo partly specified)
  A: 0	B: .	C: .	D: 54*!	E: 0

SMILES: O=C(Nc1cccc(Cl)c1)N1[C@@H]2CNC[C@H]1C2c1ccc(/C=C/c2ccccc2)cc1 (stereo partly specified)
  A: 0	B: .	C: .	D: 60*!	E: 0

SMILES: COc1cccc(-c2ccc(C3[C@H]4CNC[C@@H]3N4C(=O)Nc3ccc4c(c3)OCO4)cc2)c1 (stereo partly specified)
  A: 0	B: .	C: .	D: 71*	E: 0
